Assay results: PubChem BioAssay AID463212 (Sanford-Burnham Center for Chemical Genomics, 2010)
The list shows a part of the results, in another mix than the full data. Some salts and complexes are drawn in separate pieces, as the source files them; their charges need not balance. Calls of active or inactive are those of the source.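 How the source made its calls: active means growth inhibition of the mutant yeast at or above 50%; inactive means the rest.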

Assay: growth inhibition of tim23-1 ts yeast – luminescence, uHTS, primary screen (AID 463212);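 further: temperature-sensitive mutant grown at 25 °C; plate controls were DMSO-treated mutant yeast for no effect and medium wells lacking yeast for full effect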
Conditions: S. cerevisiae tim23-1 growth, BacTiter-Glo luminescence, 24 h; at 20 µM; active compounds read high

SMILES	inhibition
CCc1ccc(OP(C)(=O)O)cc1	inactive: -3.15%
CP(=O)(Nc1ccccn1)Oc1ccccc1 (stereo not given)	inactive: 3.68%
COc1ccccc1OP(C)(=O)Nc1ccc(C)cc1C (stereo not given)	inactive: 15.6%
O=[N+]([O-])c1cc([N+](=O)[O-])c(Nc2ccccn2)c([N+](=O)[O-])c1	active: 70.1%
Cc1c(NP(C)(=O)Oc2ccc(C(C)C)cc2)c(=O)n(-c2ccccc2)n1C (stereo not given)	inactive: 7.24%
COc1ccc(OP(C)(=O)Nc2ccccc2Br)cc1 (stereo not given)	inactive: -11.1%
COc1ccccc1OP(C)(=O)Nc1ccc(C)c(C)c1 (stereo not given)	inactive: 1.36%
Cc1cc(C)cc(OP(C)(=O)Nc2cccc(C(F)(F)F)c2)c1 (stereo not given)	inactive: 8.99%
CP(=O)(OCCOc1ccccc1)OCCOc1ccccc1	inactive: 0.995%
CP(=O)(Nc1ccc(Cl)cc1Cl)Oc1ccccc1 (stereo not given)	inactive: -3.67%
Cc1nc2ccc3ccccc3c2o1.O=[N+]([O-])c1cc([N+](=O)[O-])c(O)c([N+](=O)[O-])c1	inactive: 24.2%
COc1ccc(OP(C)(=O)Nc2ccc(SC(F)(F)F)cc2)cc1 (stereo not given)	inactive: 36.6%
CCOC(=O)c1ccc(NP(C)(=O)Oc2ccc(F)cc2)cc1 (stereo not given)	inactive: 18.8%
CCCCCOc1ccc(NP(C)(=O)Oc2ccc(Cl)cc2Cl)cc1 (stereo not given)	inactive: 43%
O=[N+]([O-])c1cc([N+](=O)[O-])c(OC2CCCCC2O)c([N+](=O)[O-])c1 (stereo not given)	inactive: 14.6%
CP(=O)(Nc1ccccc1)Oc1ccc(F)cc1 (stereo not given)	inactive: -6.67%
CCN(CC)CCCOC(=O)C(O)(c1ccccc1)C1CCCCC1 (stereo not given)	inactive: -6.03%
CC(C)c1ccc(OP(C)(=O)Nc2ccc(SC(F)(F)F)cc2)cc1 (stereo not given)	inactive: 28.8%
CP(=O)(Nc1ccccc1F)Oc1ccccc1 (stereo not given)	inactive: 10.3%
COc1ccc2c(c1O)-c1c(O)c(OC)cc3c1[C@H](C2)[N+](C)(C)CC3.O=[N+]([O-])c1cc([N+](=O)[O-])c([O-])c([N+](=O)[O-])c1[O-]	inactive: 8.93%
O=C(OCCN1CCN(CCOCc2ccccc2)CC1)C(O)(c1ccccc1)c1ccccc1	inactive: 2.78%
O=C(OC1CN2CCC1CC2)c1ccc([N+](=O)[O-])cc1 (stereo not given)	inactive: -292%
CCOP(C)(=S)SCC(=O)NC(C)(CC)C(=O)O (stereo not given)	inactive: 29.3%
CP(=O)(Nc1ccc(SC(F)(F)F)cc1)Oc1ccc(F)cc1 (stereo not given)	inactive: 21%
Cc1ccccc1NP(C)(=O)Nc1ccccc1C	inactive: 10.1%
CP(=O)(Nc1ccc2c(c1)OCCO2)Oc1ccccc1 (stereo not given)	inactive: 16.9%
COc1ccc(NP(C)(=O)Oc2ccccc2OC)cc1 (stereo not given)	inactive: -3.88%
CN(C)CCOC(=O)C(O)(c1ccccc1)C1CCCCC1 (stereo not given)	inactive: -10.4%
COc1ccc(OP(C)(=O)Nc2cccc(Br)c2)cc1 (stereo not given)	inactive: 14.5%
O=[N+]([O-])c1cc([N+](=O)[O-])c(NCC2CCS(=O)(=O)C2)c([N+](=O)[O-])c1 (stereo not given)	inactive: 16.8%
